Measurements from article PMC5535174.

Chains of the proteins cited; added tags and fusions are not shown. Lines headed by an entry give the natural chain unless they say otherwise; changes in a name come on top.
UniProt P50052: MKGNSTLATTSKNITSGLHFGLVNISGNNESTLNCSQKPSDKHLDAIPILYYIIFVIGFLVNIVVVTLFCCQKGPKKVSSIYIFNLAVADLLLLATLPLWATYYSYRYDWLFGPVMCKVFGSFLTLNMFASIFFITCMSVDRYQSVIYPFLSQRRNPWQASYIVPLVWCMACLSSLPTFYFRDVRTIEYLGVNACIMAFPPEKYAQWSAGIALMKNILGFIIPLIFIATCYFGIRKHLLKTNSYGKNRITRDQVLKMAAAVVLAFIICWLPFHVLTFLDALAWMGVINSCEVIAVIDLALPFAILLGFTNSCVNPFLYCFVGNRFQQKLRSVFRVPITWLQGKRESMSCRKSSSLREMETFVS

Molecular target: SNAP tagged AT2R (angiotensin II type 2 receptor) (UniProt P50052)
Experiment: AlphaScreen or HTRF; saturation binding: increasing concentrations of DY647-AngII on HEK293 cells overexpressing SNAP-AT2R labeled with Lumi4-Tb; Tag-lite labeling buffer; 3 h in the dark at 4 °C; HTRF ratio 665/620 nm

Substance “fluorescently labelled AngII (DY647-AngII) (peptide)” has a Kd of 3 nM.
